# Yeast mating assay B: variants of the scFv Ab-14

Target peptide (SARS-CoV-2 spike, HR2 region): PDVDLGDISGINAS

Parent: Ab-14, a human scFv built as VH, three GGGGS repeats, VL. Only the CDRs of the heavy chain vary.
VH: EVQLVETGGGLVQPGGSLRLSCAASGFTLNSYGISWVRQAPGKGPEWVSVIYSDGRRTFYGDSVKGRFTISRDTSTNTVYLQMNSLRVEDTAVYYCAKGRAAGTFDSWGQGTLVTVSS
VL: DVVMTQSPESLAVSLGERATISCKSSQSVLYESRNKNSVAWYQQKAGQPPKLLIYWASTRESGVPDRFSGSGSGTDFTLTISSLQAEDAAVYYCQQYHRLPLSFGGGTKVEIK

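These sequences belong to a second round, designed from the earlier measurements on random variants of the parent. Several design methods are mixed in this list. The scFvs were displayed on barcoded MATa yeast, the peptide on MATalpha yeast. Binding brings cells together so that they mate, and sequencing counts the barcode pairs among the diploids. The ratio of observed to expected reads was calibrated, replicate by replicate, on BCL2-family standards whose Kd was known from biolayer interferometry. The assay was run in six technical replicates.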

Variants are written as CDR1, CDR2 and CDR3 of the heavy chain (limits as in the source). Parent: GFTLNSYGIS, VIYSDGRRTFYGDSVK, GRAAGTFDS. Kd is apparent (estimated from mating counts) and averaged on the log scale over replicates with a signal. Smaller is tighter. "not detected" means that the variant was in the library but no mating with the target was seen in any replicate; the authors take this as a sign of poor binding, and no number exists. Empty control strains, which show no peptide, gave a signal in 1% of pairings with all heavy chain designs; the median was 120 nM and 95% of these signals were weaker than 7.0 nM. No background was subtracted. The parent sequence was in this pool as ten entries: three were never detected, three once, and four in most replicates, with averages from 2.2 nM to 240 nM. In the paper, a design with two or fewer of six values counts as a poor binder. Values of this round are not directly comparable with the first-round values of the same sequences.

CDR-H1,CDR-H2,CDR-H3,Kd,detected
GFDLNEYGIS,VIYADGRRTFYADSVK,GEAAGTFNQ,1.3 nM,6/6
GFDLDEYGIS,VIYADGMRTAYTDSVK,GETAGTFDQ,1.0 nM,6/6
GFTLNSYGIS,VIYSDGRRTFYSDSVK,GREAGTFSS,2.1 nM,6/6
GFNLNEYGIS,VIYADGTRMGYANSVK,GAVHGFYLI,not detected,0/6
GFDLNEYGIS,VIYADGRRTSYIDSVK,GNEAGTFDV,720 pM,6/6
GFSLNSYGIS,VIYSDGRRTFYHDSVK,GRAAGTFDS,7.9 nM,6/6
KFTPNEYGIS,VIYSDGRRTFYQGSVK,GRAAGTFDS,37 nM,1/6
GFDIGEYGIS,VIYADGQRTAYKPTVK,GNHTGLVFI,not detected,0/6
GFDLNEYGIS,VIYADGMRTFYADSVK,GNVAGTFDL,410 pM,6/6
GFTLNSYGIS,VIYSDGRRTMYIDSVK,GRLAGTPDS,190 nM,1/6
GFTLDSYSIS,VIYSDGRRTFYGDSVK,GRAAGTFIS,not detected,0/6
GFGLMDYGIS,VIYADGSRRSYANSFK,GAHAGTFDF,22 nM,6/6
GFTLNSYGIS,VIYSDGRRTFYSDSVK,GRAAGTFDH,29 nM,3/6
GFNLEEYGIS,VIYADGSRSSYIEDVK,GHWNADFIV,not detected,0/6
GFNLNEYGIS,VIYADGQRTKYIDDVK,GTNRVKGMG,not detected,0/6
GFSLNEYGIS,VIYSDGRRTFYGDSVK,GKAAGTFDS,750 pM,6/6
GFELNSYGIS,VIYSDGRRTFYGDDVK,GVNAGTFDS,44 nM,5/6
GFTLNEYGIS,VIYSDGRRTFYCDSVK,GRAAVTFDQ,not detected,0/6
GFSLNQYGIS,VIYSDGRRTFYADSVK,GRAAGTFDS,870 pM,6/6
GFDLNEYGIS,VIYADGMRTSYADSVK,GQNAGTFDL,440 pM,6/6
GFFLNSYGIS,VIYSDKRRTFYGDIVK,GRAWGWFNS,not detected,0/6
GFDLNEYGIS,VIYADGRRTFYTDSVK,GENAGTFDV,2.9 nM,6/6
GFTLNSYGIS,VIYSDGRRTFYGDSVK,GGAAGWFTS,not detected,0/6
GFDLDEYGIS,VIYADGMRTFYADSVK,GNTAGTFDV,180 pM,6/6
GFDLNSYGIS,VIYSDGRRTFYVDSVK,GSAAGTFDS,300 pM,6/6
GYDLEEYGIS,VIYADGRRTAYADNVK,GMSGADGMF,not detected,0/6
GFTVEQYGIS,VIYSDGRRTFYSDSVK,GRAAGFFDS,not detected,0/6
GFTLNYYGIS,VIYADGRRTFYHDSVK,GRAAGTFDS,470 pM,6/6
GFDLNSYGIS,VIYSDGRRTFYKDAVK,GRTAGTFDS,1.3 nM,6/6
GFDLNSYGIS,VIYSDGRRTFYGDSVK,GREAGTFDL,2.0 nM,6/6
GFDLNEYGIS,VIYSDGFRTFYGDSVK,GRAAGTFDS,2.1 nM,6/6
GFQLNDYGIS,VIYSDGRRTEYGDSVK,GRAAGTFDS,38 nM,5/6
GFGLNSYGIS,VIYSDGRRTFYTDSVK,GKAAGTFDS,77 nM,6/6
GFQLNSYGIS,VIYSDGMRTFYSDSVK,GRTAGTFDS,10 nM,6/6
GFTLNSYGIS,VIYSDGIRTFYGDDVK,GRAALTFDS,not detected,0/6
GKDIEEYGIS,VIYADGMRQAYADSVK,GQVVGSGSF,not detected,0/6
GFTLNSYGIS,VIYSDGRRTFYQDSVK,GRAAGTFDQ,14 nM,1/6
GFDLDEYGIS,VIYADGKRTAYTDSVK,GNVAGTFDI,9.7 nM,1/6
GFDLNSYGIS,VIYSDGRRTFYIDSVK,GQLAGTFDS,1.7 nM,3/6
GFSLNSYGIS,VIYSDGRRTFYGDTVK,GRQAGTFDS,17 nM,6/6
GFELNSYGIS,VIYSDGRRTFYTDSVK,GRQAGTFDS,6.3 nM,5/6
GFDLNEYGIS,VIYADGVRTSYADSVK,GENAGTFDL,not detected,0/6
GFDLNSYGIS,VIYSDGRRTFYGDSVK,GRAAGQFMS,not detected,0/6
GFDLEDYGIS,VIYADGRRTAYSDSVK,GEIAGTFDS,760 pM,6/6
GFNLNSYGIS,VIYSDGRRTFYGDSVK,GRAAATFDS,not detected,0/6
GFTLNSHGIS,VIYSDGFRTFYGDSVV,GRAAGTFDS,not detected,0/6
GFELNDYGIS,VIYSDGRRTEYGDSVK,GRAAGTFDS,10 nM,5/6
GFDLNSYGIS,VIYSDGRRTFYGDMVK,GRTAGTFDS,2.5 nM,6/6
GFDLDEYGIS,VIYADGMRTAYADSVK,GNVAGTFDQ,380 pM,6/6
GFDLNEYGIS,VIYADGKRTFYSDSVK,GNMAGTFDV,1.4 nM,6/6
GKSLDEYGIS,VIYADGMRAEYQNQVK,GTTGGDVFV,not detected,0/6
GFDLNEYGIS,VIYADGKRTAYVDSVK,GENAGTFDM,220 pM,6/6
GFDLNDYGIS,VIYADGRRTQYIDSVK,GENAGTFDL,3.0 nM,6/6
GFDLDEYGIS,VIYADGMRTAYADSVK,GSNAGTFDL,420 pM,6/6
GFTLNSYGIS,VIYSDGRRTFYDDSVK,NRAAGTFDS,1.1 µM,1/6
GFDLNEYGIS,VIYADGMRTAYSDSVK,GSNAGTFDQ,790 pM,6/6
GFTLNEYGIS,VIYSDGRRTFYGDSVS,GRVAGTFDS,3.5 nM,6/6
GFDLTEYGIS,VIYADGVRNHYADNVK,GKSDGTNML,not detected,0/6
GFTLNSYGIS,VIYSDGRRTFYEDSVK,GRWAGTFDS,not detected,0/6
GFYLNEYGIS,VIYSDGRRTFYGDSVK,GQAAGTFDS,11 nM,6/6
GFDLNEYGIS,VIYADGRRTFYADSVK,GKNAGTFDI,1.1 nM,6/6
GDDLEDYGIS,VIYADGRRRAYQENVK,GLYAGYFDV,not detected,0/6
GFTLNSYGIS,VIYSDGRRTFYSDSVD,GRAAGTTDS,not detected,0/6
GFTLNSYGIS,VIYSDGVRTYYADSVK,GRAAGTFDL,7.2 nM,4/6
GFTLNSYGIS,VIYSDGRRTFYSDSVK,GKEAGTFFS,61 nM,1/6
GFDLNEYGIS,VIYADGKRTAYADSVK,GNVAGTFDQ,260 pM,6/6
GFDLNEYGIS,VIYADGRRTFYADSVK,GNTAGTFVS,650 pM,6/6

Picked from the list: the 6 lowest averages where every replicate gave a value.

CDR-H1	CDR-H2	CDR-H3	Kd	detected
GFDLDEYGIS	VIYADGMRTFYADSVK	GNTAGTFDV	180 pM	6/6
GFDLNEYGIS	VIYADGKRTAYVDSVK	GENAGTFDM	220 pM	6/6
GFDLNEYGIS	VIYADGKRTAYADSVK	GNVAGTFDQ	260 pM	6/6
GFDLNSYGIS	VIYSDGRRTFYVDSVK	GSAAGTFDS	300 pM	6/6
GFDLDEYGIS	VIYADGMRTAYADSVK	GNVAGTFDQ	380 pM	6/6
GFDLNEYGIS	VIYADGMRTFYADSVK	GNVAGTFDL	410 pM	6/6

Reference: Li et al. 2023, doi:10.1038/s41467-023-39022-2. File: FLAb, binding data.